# Target: Hepatocyte growth factor receptor (Homo sapiens, UniProt P08581)
# Test: Inhibition of c-Met by HTRF assay
compound,measurement,value
COc1ccc2c(OCc3nnc4ccc(-c5ccccc5)nn34)ccnc2c1 [AMG-208],IC50,9 nM

# — ChEMBL document CHEMBL1150286, “Discovery and optimization of triazolopyridazines as potent and selective inhibitors of the c-Met kinase” (J Med Chem, 2008)
